Test results taken from article PMC6044835, “Expression, Purification, and Biochemical Characterization of the Flavocytochrome P450 CYP505A30 from Myceliophthora thermophila” (ACS Omega, 2017).

Protein sequences, listed by entry. Tags and fused reporters are not part of them.
UniProt G2QDZ3, entry or part of it: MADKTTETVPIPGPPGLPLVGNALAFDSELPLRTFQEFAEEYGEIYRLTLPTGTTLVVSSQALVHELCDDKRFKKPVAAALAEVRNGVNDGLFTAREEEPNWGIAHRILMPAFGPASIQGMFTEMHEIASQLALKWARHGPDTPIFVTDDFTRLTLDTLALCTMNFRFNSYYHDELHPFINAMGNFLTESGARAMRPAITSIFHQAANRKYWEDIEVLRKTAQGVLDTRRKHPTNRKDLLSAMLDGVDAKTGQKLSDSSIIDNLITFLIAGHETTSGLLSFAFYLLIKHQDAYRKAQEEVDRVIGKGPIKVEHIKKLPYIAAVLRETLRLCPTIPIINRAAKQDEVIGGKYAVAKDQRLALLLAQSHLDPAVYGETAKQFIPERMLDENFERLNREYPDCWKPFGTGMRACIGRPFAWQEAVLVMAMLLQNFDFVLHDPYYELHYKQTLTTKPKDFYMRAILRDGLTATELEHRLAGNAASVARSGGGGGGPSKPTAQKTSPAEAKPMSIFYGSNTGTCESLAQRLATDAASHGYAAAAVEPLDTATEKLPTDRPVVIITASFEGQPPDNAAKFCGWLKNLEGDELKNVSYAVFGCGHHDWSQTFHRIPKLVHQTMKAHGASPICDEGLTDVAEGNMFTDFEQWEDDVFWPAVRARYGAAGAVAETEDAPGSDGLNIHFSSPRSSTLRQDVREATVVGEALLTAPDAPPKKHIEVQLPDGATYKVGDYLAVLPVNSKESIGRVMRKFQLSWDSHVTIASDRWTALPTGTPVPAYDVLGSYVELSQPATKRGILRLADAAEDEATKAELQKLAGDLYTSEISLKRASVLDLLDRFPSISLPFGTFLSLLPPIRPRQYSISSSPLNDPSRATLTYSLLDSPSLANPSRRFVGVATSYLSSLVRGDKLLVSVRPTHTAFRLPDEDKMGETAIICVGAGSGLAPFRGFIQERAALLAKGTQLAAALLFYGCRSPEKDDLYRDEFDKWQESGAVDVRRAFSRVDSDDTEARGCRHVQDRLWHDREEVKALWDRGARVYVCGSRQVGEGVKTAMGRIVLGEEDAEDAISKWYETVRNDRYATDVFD

Target: CYP505A30 (Thermothelomyces thermophilus, UniProt G2QDZ3)
Settings: read-out: apparent KD; hyperbolic dependence of kobs on [NADH], 10 °C

## NC(=O)C1=CN([C@@H]2O[C@H](COP(=O)(O)OP(=O)(O)OC[C@H]3O[C@@H](n4cnc5c(N)ncnc54)[C@H](O)[C@@H]3O)[C@@H](O)[C@H]2O)C=CC1 [NADH, reduced nicotinamide adenine dinucleotide]
  Kd: 816 ± 113 µM
